By UniProt entry, the sequences of proteins in these tests, tags left out. Where a name states a change or a piece, a line headed by the entry shows the natural chain unless it says otherwise.
UniProt P41145: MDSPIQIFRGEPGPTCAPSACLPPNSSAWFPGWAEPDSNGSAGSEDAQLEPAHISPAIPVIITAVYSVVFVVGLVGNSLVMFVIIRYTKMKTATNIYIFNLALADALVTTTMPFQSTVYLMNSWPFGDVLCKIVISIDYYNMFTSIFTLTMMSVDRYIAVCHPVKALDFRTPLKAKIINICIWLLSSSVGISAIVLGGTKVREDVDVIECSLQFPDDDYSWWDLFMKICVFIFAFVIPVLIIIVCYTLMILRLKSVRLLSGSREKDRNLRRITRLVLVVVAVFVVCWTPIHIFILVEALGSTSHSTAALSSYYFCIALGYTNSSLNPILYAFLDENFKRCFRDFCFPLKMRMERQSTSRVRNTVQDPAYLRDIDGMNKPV

According to ChEMBL document CHEMBL3217531, “Potential Drug Abuse Therapeutics Derived from the Hallucinogenic Natural Product Salvinorin A” (Medchemcomm, 2011):

Tests used:
[1] = target: T1, Kappa-type opioid receptor (Homo sapiens, UniProt P41145); assay: Displacement of [3H]U69593 from human kappa opioid receptor expressed in CHO cell membrane after 2 hrs by scintillation counting analysis; assay type: cell membranes
[2] = target: T1, Kappa-type opioid receptor; assay: Agonist activity at human kappa opioid receptor expressed in CHO cell membrane assessed as [35S]GTPgammaS binding after 3 hrs by liquid scintillation counting analysis relative to (-)-U50488H; assay type: functional, cell membranes

Row | Compound | Ki [1] [nM] | Emax [2] [%]
1 | CCO[C@H](C)O[C@H]1C[C@@H](C(=O)OC)[C@]2(C)CC[C@H]3C(=O)O[C@H](c4ccoc4)C[C@]3(C)[C@H]2C1=O | 1230 | 
2 | CCO[C@@H](C)O[C@H]1C[C@@H](C(=O)OC)[C@]2(C)CC[C@H]3C(=O)O[C@H](c4ccoc4)C[C@]3(C)[C@H]2C1=O | 6.7 | 101
